Experimental data from PMC5322802 (Biochemistry, 2016).

Assays:
FABP1 [1] = molecular target: T1, FABP1 (Mus musculus, UniProt P12710); experiment: cis-parinaroyl-CoA displacement from FABP1; conditions: displacement of FABP1-bound cis-parinaroyl-CoA (footnote a); 24°C; mean ± SEM, n=5; ND = no significant displacement
T1 sequence (P12710 1-127): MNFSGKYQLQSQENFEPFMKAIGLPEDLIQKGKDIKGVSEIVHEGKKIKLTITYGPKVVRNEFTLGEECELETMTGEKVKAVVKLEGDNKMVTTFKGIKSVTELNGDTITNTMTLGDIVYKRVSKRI

FABP1 [2] = molecular target: T1, FABP1; experiment: NBD-AEA displacement from FABP1; format: binding, murine; conditions: displacement of FABP1-bound NBD-AEA (footnote b); 24°C; mean ± SEM, n=5; ND = no significant displacement

SR-144528 was tested, and the Ki (FABP1 [1]) was “did not displace” and the Ki (FABP1 [2]) was “did not displace”.
